Test results reported in US20150038435A1, “N-TERMINALLY MODIFIED OLIGOPEPTIDES AND USES THEREOF” (Novo Nordisk A/S, priority 2012, published 2015).

Test: Hydrophobicity: retention time during reverse phase HPLC
Assay type: physicochemical
Settings: Acquity CSH C18; pH 7.2 buffer/CH3CN gradient; 40° C.
Text: The retention time (RT) during reverse phase HPLC was taken as a measure of hydrophobicity of an N-terminally modified peptide or oligopeptide of the invention, where the connection is: The longer the RT, the more hydrophobic N-terminally modified peptide or oligopeptide. The following running conditions were applied during HPLC analysis:
Buffer B: 70% (v/v) aq. CH3CN

Substance	RT (retention time during reverse phase HPLC as a measure of hydrophobicity)
N-dodecanoyl-Gly-Ala-Pro-Tyr-OH [Example 37]	5.41 min
N-dodecanoyl-Ile-Ala-Ala-Pro-Tyr-OH [Example 40]	7.77 min
N-dodecanoyl-βAla-βAla-Pro-Phe-Pro-OH [Example 6]	5.96 min
